Biological target: T1, rice recombinant human serum albumin (HSA) (Homo sapiens, UniProt P02768)
T1 construct: host or cells: rice (recombinant expression host)
Assay: Cannabis vapor streamed through protein solution, cannabinoids adsorbed (Example 1f)
Type: binding
Details: vapor of cannabis high in CBD; 1 mg/ml HSA
Protocol: Vapor of cannabis plant material high in CBD was formed using a volcano vaporizer, and the vapor was streamed through 1 mg/ml solutions of either rice recombinant human serum albumin (HSA), bovine γ-globulin or ovalbumin (hen). The protein solutions were formed using ethanol and water in a 1:2 ratio. The solutions were incubated at 30° C. for 24 hours.

HSA: rice recombinant human serum albumin
cannabinoid adsorbed per mg of protein: about 4 micrograms of cannabinoid per mg of protein
